iPSC survival up: enhancers of single-cell hiPSC survival, primary screen, ATPlite luminescence | survival enhancement, % at 20 µM | 0.044% of 360,000 active | 100% = ROCK inhibitor wells, 0% = DMSO; in the data active = survival enhancement above about 18%;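 also: cells exposed to compounds for 16 hours before the ATP read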
PGC1a acetyl inh: inhibitors of PGC1a acetylation signal, primary screen, cell-based, U2OS, AlphaScreen, inhibitor mode. AlphaScreen anti-acetyl-lysine; with virally co-expressed GCN5 acetyltransferase. inhibition, % at 15.6 µM. 0.17% of 350,000 active. AID 651687, 2012;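 active = every replicate shows inhibition of at least 40%; inconclusive = mean inhibition at least 40% but some replicate below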;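 also: 0% = neutral control wells and 100% = positive control wells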
Statin myotox sup: suppressors of statin myotoxicity in C2C12 myotubes, primary screen, cell-based, single point, plate reader | 0.78% of 330,000 active | AID 602340, 2012 | C2C12 myotubes + simvastatin, ATP luminescence, 48 h; scaled: DMSO 0, geranylgeraniol control 100 | rescue of ATP level, % at 7.49 µM;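 active = mean ATP rescue above about 67%, or every replicate alone reaching that limit, limit read from the data, passing the limit was not always enough; inconclusive = no clear call, values can overlap the other calls; inactive = mean under the limit and some replicate under it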;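 also: myotubes were challenged with 10 µM simvastatin during compound exposure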
FN deposit inh: inhibitors of fibronectin matrix deposition, primary screen, AH1F cells, Alexa488-fibronectin fluorescence, plate reader; 0.086% of 350,000 active; AH1F fibroblasts, overnight; AID 743247, 2014; inhibition, % at 12.6 µM;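 active = mean inhibition across replicates of 30% or more, regardless of how many single replicates reach that level; inconclusive = mean under 30% yet at least half of replicates reach 30%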;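 also: positive control wells lacked labelled fibronectin entirely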
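Material: AH1F fibroblast monolayer depositing Alexa488-labelled fibronectin into matrix / Amount: 10000 AH1F cells per well / Signal: fluorescence 485/525 nm / Medium: DMEM, 2% serum / Compound: single dose, pinned / Incubation: 1 h cell adhesion before compound, then overnight fibronectin incubation / Reagent: Alexa488-FN, 24 nM final / Read-out: inhibition of fibronectin deposition signal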
UUG fidelity: modulators of yeast start codon fidelity, primary screen, whole organism, S. cerevisiae, single point, plate reader; activity score, % at 18.7 µM; actives 0.13% (n = 350,000); S. cerevisiae UUG-firefly luciferase reporter, luminescence/redox ratio;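 active = replicate mean at a twofold rise or more, about +100% in these data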;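 also: firefly luciferase made from a UUG start codon reports start codon fidelity; reporter light over untreated wells divided by growth signal over untreated wells; some hits fall short of that in this replicate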
An asterisk follows results filed as active; u = inconclusive; x = not tested or not shown; ! = repeats disagree. An excerpt weighted towards active compounds, which were near 0.91% of everything screened.

The first 3 entries as a preview:
SMILES	iPSC survival up	PGC1a acetyl inh	Statin myotox sup	FN deposit inh	UUG fidelity
CCOP(=O)(OCC)c1nc(-c2cccc3ccccc23)oc1NCCc1ccc(OC)cc1	-1	4	92*	10	13
COc1ccc(CNc2oc(-c3cccc4ccccc34)nc2C#N)cc1	-3	x	-12	x	-1
CCOC(=O)N1CCN(C(=O)C(C)N(c2ccccc2)S(C)(=O)=O)CC1 (stereo unspecified)	1	-26	x	-14	x

The list itself, from the first entry:
SMILES	iPSC survival up	PGC1a acetyl inh	Statin myotox sup	FN deposit inh	UUG fidelity
CCOP(=O)(OCC)c1nc(-c2cccc3ccccc23)oc1NCCc1ccc(OC)cc1	-1	4	92*	10	13
COc1ccc(CNc2oc(-c3cccc4ccccc34)nc2C#N)cc1	-3	x	-12	x	-1
CCOC(=O)N1CCN(C(=O)C(C)N(c2ccccc2)S(C)(=O)=O)CC1 (stereo unspecified)	1	-26	x	-14	x
CCOC(=O)N1CCN(C(=O)C(c2ccccc2)c2ccccc2)CC1	-1	0	115*	x	x
CCOC(=O)N1CCN(C(=O)c2cc(Cl)c(Cl)cc2C(=O)O)CC1	4	84*	x	x	x
CCOC(=O)c1nnc(-c2ccc(C)cc2)nc1Sc1ccc(Cl)cc1	-2	10	109*	x	-19
Cc1nnc(Sc2nc3c(c(=O)n(C)c(=O)n3C)n2Cc2ccccc2Cl)s1	0	10	118*	-4	15
COc1ccc(C2NC(=S)NC3=C2CCc2cc(OC)ccc23)cc1 (stereo unspecified)	-1	0	90*	-13	-22
CCOc1cc(C(=O)Nc2cccc3ncccc23)cc(OCC)c1OCC	0	-9	107*	x	9
O=C(Cn1cnc2c(nnn2Cc2ccc(F)cc2)c1=O)NC1CCCC1	8	13	141*	0	-17
O=C(Cn1cnc2c(nnn2Cc2ccc(Cl)cc2)c1=O)NC1CCCC1	-1	2	4	x	-23
C=C1C(=O)[C@]23C[C@H]1CC[C@H]2[C@]1(C)[C@@H](O)CC[C@@](C)(C(=O)O)[C@H]1C[C@@H]3O	1	-14	32	x	-1
C=C1C(=O)[C@]23C[C@H]1CC[C@H]2[C@]1(C)[C@@H](OC(C)=O)CC[C@@](C)(C(=O)O)[C@H]1C[C@@H]3O	-3	15	15	2	-12
C=C1C(=O)[C@]23C[C@H]1CCC2[C@@]1(C)C(C[C@@H]3O)[C@](C)(C(=O)OC)CC[C@@H]1OC(C)=O (stereo partly specified)	15	103*	-294	27	-3
C=C1C(=O)[C@]23C[C@H]1CC[C@H]2[C@]1(C)[C@@H](OC(C)=O)CC[C@@](C)(C(=O)OC)[C@H]1C[C@@H]3OC(C)=O	-4	94*	-41	x	18
C[C@@H]1CN([C@@H](C)CO)C(=O)Cc2cc(NC(=O)Nc3ccc(C(F)(F)F)cc3)ccc2O[C@@H]1CN(C)CC1CC1	x	-12	-27	x	4
CNC(=O)C[C@@H]1CC[C@H]2[C@@H](COc3ccc(NC(=O)c4ccccc4OC)cc3C(=O)N2C)O1	x	6	20	-8	-2
CCNC(=O)/C(=C\c1ccc2c(c1)OCO2)NC(=O)c1ccc(Br)cc1	3	9	x	3	-12
CCNC(=O)/C(=C/c1ccc2c(c1)OCO2)NC(=O)c1ccc(Br)cc1	12	8	79*	-5	-5
COc1ccc(-c2nc(CC(=O)O)cs2)cc1	3	2	105*	x	-10

The closing 2 entries of the section before come first, to join the parts:
SMILES	iPSC survival up	PGC1a acetyl inh	Statin myotox sup	FN deposit inh	UUG fidelity
CCNC(=O)/C(=C/c1ccc2c(c1)OCO2)NC(=O)c1ccc(Br)cc1	12	8	79*	-5	-5
COc1ccc(-c2nc(CC(=O)O)cs2)cc1	3	2	105*	x	-10
COc1cccc(-c2nc(CC(=O)O)cs2)c1OC	0	x	x	4	x
CCC(CCC(=O)Nc1ccn(-c2ccccc2)n1)C(=O)O (stereo unspecified)	0	5	121*	x	-10
C[C@@H]1CN([C@H](C)CO)C(=O)c2cc(NC(=O)Cc3ccccc3)ccc2O[C@@H](C)CCCCO[C@H]1CN(C)C(=O)Nc1ccc(F)cc1	x	-13	38	x	11
O=C(N[C@H]1CC[C@@H](CCn2cc(-c3ccccn3)nn2)O[C@H]1CO)c1ccncc1	x	7	3	-23	-14
CC(NC(=O)Nc1ccc(O)cc1)(C(F)(F)F)C(F)(F)F	8	12	-1	x	5
CC(NC(=O)Nc1ccccc1O)(C(F)(F)F)C(F)(F)F	-1	-3	91*	x	6
COc1ccc(NC(=O)N(C)C[C@@H]2OCCCC[C@@H](C)Oc3ccc(NC(=O)CCCCCC(=O)Nc4ccccc4N)cc3C(=O)N([C@H](C)CO)C[C@@H]2C)cc1	x	-2	x	x	-1
CN(C)CCNC(=O)c1ccc(Cl)s1	-2	10	6	x	x
O=C(NCCCCNC(=O)c1ccc(Cl)s1)c1ccc(Cl)s1	0	16	108*	x	-10
CSc1cccc(NC(=O)C2CCCN(S(=O)(=O)c3ccc(F)cc3)C2)c1 (stereo unspecified)	-1	-12	x	x	5
O=C(Nc1cccc(Cl)c1)C1CCCN(S(=O)(=O)c2ccc(F)cc2)C1 (stereo unspecified)	-2	-11	125*	x	13
O=C1C=C(c2ccccc2)C[C@H](c2cccs2)[C@H]1n1cnc([N+](=O)[O-])c1	-2	5	137*	-2	-10
C[C@@H]1CN([C@H](C)CO)C(=O)c2cccc(NS(C)(=O)=O)c2O[C@H]1CN(C)CC1CC1	x	2	-17	-5	-9
C[C@H](CO)N1C[C@H](C)[C@@H](CN(C)Cc2ccc(C(=O)Nc3ccccc3N)cc2)Oc2ccc(NC(=O)Nc3cccc4ccccc34)cc2C1=O	x	-6	57	x	-9
Cc1ccc(S(=O)(=O)Nc2ccc3c(c2)C(=O)N([C@H](C)CO)C[C@H](C)[C@H](CN(C)Cc2ccc(C(=O)Nc4ccccc4N)cc2)O3)cc1	x	2	82*	x	13
Cc1ccc(S(=O)(=O)Nc2ccc3c(c2)C(=O)N([C@@H](C)CO)C[C@H](C)[C@H](CN(C)Cc2ccc(C(=O)Nc4ccccc4N)cc2)O3)cc1	x	-3	u	x	15
C[C@@H]1CN([C@@H](C)CO)C(=O)c2cc(NC(=O)Cn3cnnn3)ccc2O[C@@H]1CN(C)Cc1ccc(C(=O)Nc2ccccc2N)cc1	x	7	29	-7	-10
C[C@@H]1CN([C@@H](C)CO)C(=O)c2cccc(NS(C)(=O)=O)c2O[C@H]1CN(C)CC1CCCCC1	1	-4	103*!	8	-8
C[C@@H]1CN([C@H](C)CO)C(=O)c2cc(NC(=O)Cn3cnnn3)ccc2O[C@@H]1CN(C)Cc1ccc(C(=O)Nc2ccccc2N)cc1	x	3	105*	-4	-14
C[C@H]1CN([C@@H](C)CO)C(=O)c2cc(NC(=O)Nc3cccc4ccccc34)ccc2O[C@H]1CN(C)Cc1ccc(C(=O)Nc2ccccc2N)cc1	x	-3	202*	x	-4
Cc1cc(N2CCN(C(=O)OC(C)(C)C)C[C@H]2C)ccc1N1CCS(=O)(=O)CC1	x	x	x	-17	x
O=C(C[C@H]1C=C[C@H](NC(=O)C2CCOCC2)[C@@H](CO)O1)NCc1ccncc1	x	-1	4	-18	-15
COCC(=O)NC[C@@H]1[C@@H](c2ccc(C3=CCCC3)cc2)[C@@H](CO)N1C(=O)C1CC1	x	5	0	-11	1

Screening data (PubChem BioAssay)
